Reference: article PMC10350922, “Allosteric Inhibitors of Macrophage Migration Inhibitory Factor (MIF) Interfere with Apoptosis-Inducing Factor (AIF) Co-Localization to Prevent Parthanatos” (Journal of Medicinal Chemistry, 2023)

System: HeLa cells
Assay: Cell death determination by flow cytometry (Hoechst 33342 / PI)
Type: cell-based
Conditions: MNNG 50 μM 15 min, with or without 100 μM inhibitor pretreatment, 24 h

## N-methyl-N′-nitro-N-nitrosoguanidine
  Cells stained by PI: 50%
